# Results published in patent US9567339B2, “Primary carboxamides as BTK inhibitors” (AbbVie Inc., priority 2013, dated 2017).
# Amino acid sequences for entries named in this document (tags omitted). Residues count along the entry.
# UniProt Q06187, 393-659 limits assumed: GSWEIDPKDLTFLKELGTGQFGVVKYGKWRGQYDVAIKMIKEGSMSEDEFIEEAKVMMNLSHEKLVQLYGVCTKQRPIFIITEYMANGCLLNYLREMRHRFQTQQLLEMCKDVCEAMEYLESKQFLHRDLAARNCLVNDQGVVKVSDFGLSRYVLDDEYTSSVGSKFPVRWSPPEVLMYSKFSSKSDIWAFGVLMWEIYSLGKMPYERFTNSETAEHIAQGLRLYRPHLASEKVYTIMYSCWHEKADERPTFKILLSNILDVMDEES
# Where two headings read alike, the source gives them in different places.
# Molecular target: BTK, recombinant human catalytic domain (aa 393-659) (Homo sapiens (Human), UniProt Q06187)
# Experiment: In vitro BTK kinase activity measured by time-resolved fluorescence resonance energy transfer (trFRET)
# Format: biochemical
# Details: read-out: Btk IC50
SMILES,"IC50 (trFRET, 0.001 mM ATP, biotin-TYR1 peptide substrate)",IC50
C=CC(=O)Nc1cccc(-c2ccc(C(N)=O)c3[nH]c(-c4ccc(C(=O)N5CCOCC5)cc4)cc23)c1C,< 0.1 µM,–
Cc1c(NC(=O)[C@H]2CC[C@](O)(C(F)(F)F)CC2)cccc1-c1ccc(C(N)=O)c2[nH]c(C3=CCN(S(C)(=O)=O)CC3)cc12,–,< 0.1 µM
